This experiment has as its target T1, Dihydrofolate reductase (Rattus norvegicus, UniProt Q920D2).
T1 sequence (Q920D2 whole entry): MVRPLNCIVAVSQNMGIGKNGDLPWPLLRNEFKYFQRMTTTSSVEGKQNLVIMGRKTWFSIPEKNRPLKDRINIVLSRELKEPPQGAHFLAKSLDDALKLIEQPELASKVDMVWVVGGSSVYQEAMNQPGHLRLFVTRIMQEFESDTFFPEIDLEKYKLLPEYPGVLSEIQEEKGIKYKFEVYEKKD

Drawing on ChEMBL document CHEMBL1127704 (J Med Chem, 1994), this text covers IC50 for 1 compound.

Usually IC50 stands for the point on the concentration scale where inhibition reaches its midpoint. A high value points to weaker potency. Turning to `COc1cc(CCCNc2ccc3nc(N)nc(N)c3c2Cl)cc(OC)c1OC`, the IC50 was found to be 19 µM.
